Data: US20250049819A1, “METHODS FOR TREATING AND PREVENTING C. DIFFICILE INFECTION” (Paratek Pharmaceuticals, Inc., priority 2016, published 2025)
Read-outs that look alike come from different tables or passages of the source.

Assays:
[1] = tested on: C. difficile and gut microbiota; settings: published gut model studies, cited from earlier work
[2] = tested on: C. difficile strain ATCC 43596; assay: Hamster model of C. difficile-associated diarrhea, survival; settings: in vivo

CCC[C@@H]1C[C@@H](C(=O)N[C@@H]([C@H]2O[C@H](SC)[C@H](O)[C@@H](O)[C@H]2O)[C@H](C)Cl)N(C)C1 [Clindamycin]
induction of simulated CDI (C. difficile germination and toxin production) in the gut model [1]: causes marked toxin production
induction of simulated CDI (C. difficile germination and toxin production) in the gut model ([1]; listed as clindamycin): have induced CDI in this model
Median Survival [2]: 4 days
percent survival at day 2 post infection [2]: 10%
